Several values for one entry are separate records, joined by “and”; a condition that tells them apart may be missing. Equal values may be shown once.
Details: Liquid; for mass density: Vibrating tube method; for viscosity: 333.18 K, Vibrating wire viscometry

OCCOCCOCCOCCO [tetraethylene glycol]
Details | mass density [kg/m3]
323.15 K, 1580 kPa | 1098.8
323.15 K, 2100 kPa | 1099
323.15 K, 3000 kPa | 1099.5
323.15 K, 5060 kPa | 1100.5
323.15 K, 7010 kPa | 1101.5
323.15 K, 9930 kPa | 1102.9
323.15 K, 14900 kPa | 1105.3
323.15 K, 19770 kPa | 1107.6
323.15 K, 24760 kPa | 1110
323.15 K, 29530 kPa | 1112.1
323.15 K, 34470 kPa | 1114.4
323.15 K, 39440 kPa | 1116.5
323.15 K, 44180 kPa | 1118.6
323.15 K, 49200 kPa | 1120.6
323.15 K, 54100 kPa | 1122.7
323.15 K, 58970 kPa | 1124.6
323.15 K, 63800 kPa | 1126.5
323.15 K, 68790 kPa | 1128.4
333.15 K, 100 kPa | 1090.1
333.15 K, 660 kPa | 1090.4
333.15 K, 1170 kPa | 1090.6
333.15 K, 1590 kPa | 1090.8
333.15 K, 2110 kPa | 1091.1
333.15 K, 3020 kPa | 1091.6
333.15 K, 5110 kPa | 1092.7
333.15 K, 6990 kPa | 1093.7
333.15 K, 9900 kPa | 1095.1
333.15 K, 14860 kPa | 1097.7
333.15 K, 19730 kPa | 1100
333.15 K, 23990 kPa | 1102.6
333.15 K, 29600 kPa | 1104.7
333.15 K, 34450 kPa | 1107.1
333.15 K, 39370 kPa | 1109.2
333.15 K, 44310 kPa | 1111.5
333.15 K, 49120 kPa | 1113.5
333.15 K, 54060 kPa | 1115.6
333.15 K, 59100 kPa | 1117.7
333.15 K, 63900 kPa | 1119.7
333.15 K, 68790 kPa | 1121.6
343.15 K, 100 kPa | 1082.1
343.15 K, 720 kPa | 1082.5
343.15 K, 1090 kPa | 1082.7
343.15 K, 1600 kPa | 1082.9

Details | viscosity
210 kPa | 10.52 mPa·s
230 kPa | 10.58 mPa·s and 10.49 mPa·s and 10.5 mPa·s
580 kPa | 10.53 mPa·s and 10.56 mPa·s
590 kPa | 10.55 mPa·s [middle of 4 runs]
1210 kPa | 10.62 mPa·s [middle of 4 runs]
1990 kPa | 10.67 mPa·s [middle of 4 runs]
2000 kPa | 10.65 mPa·s and 10.69 mPa·s and 10.64 mPa·s
5100 kPa | 10.91 mPa·s
5110 kPa | 10.89 mPa·s
5120 kPa | 10.95 mPa·s
5130 kPa | 10.9 mPa·s and 10.92 mPa·s
8810 kPa | 11.19 mPa·s
8820 kPa | 11.29 mPa·s [middle of 6 runs]
9250 kPa | 11.28 mPa·s and 11.35 mPa·s
9260 kPa | 11.29 mPa·s and 11.34 mPa·s
9270 kPa | 11.34 mPa·s and 11.33 mPa·s
10450 kPa | 11.4 mPa·s [middle of 5 runs]
14500 kPa | 11.77 mPa·s and 11.86 mPa·s
14510 kPa | 11.83 mPa·s [middle of 4 runs]
14520 kPa | 11.87 mPa·s and 11.77 mPa·s
19940 kPa | 12.33 mPa·s
19950 kPa | 12.3 mPa·s
19960 kPa | 12.3 mPa·s
19970 kPa | 12.38 mPa·s
19980 kPa | 12.33 mPa·s
20000 kPa | 12.37 mPa·s
29210 kPa | 13.27 mPa·s
29240 kPa | 13.21 mPa·s
29260 kPa | 13.21 mPa·s
29280 kPa | 13.24 mPa·s
29330 kPa | 13.27 mPa·s
29350 kPa | 13.24 mPa·s
29790 kPa | 13.44 mPa·s
50350 kPa | 15.38 mPa·s
50360 kPa | 15.39 mPa·s
50380 kPa | 15.45 mPa·s
50390 kPa | 15.42 mPa·s
50400 kPa | 15.36 mPa·s
50440 kPa | 15.38 mPa·s
71140 kPa | 17.9 mPa·s
71160 kPa | 17.9 mPa·s
71260 kPa | 17.88 mPa·s
